Experimental findings from PMC8621208, “Antiseptic 9-Meric Peptide with Potency against Carbapenem-Resistant Acinetobacter baumannii Infection” (International Journal of Molecular Sciences, 2021) are described below.

Series [1] deals with E. coli. Kind of series: MIC, broth dilution. Particulars: 16 h, MH media. It counts as cell-based, Escherichia coli KCTC 1682. From the text: (§1) Escherichia coli KCTC 1682 was obtained from the Korean Collection for Type Cultures (KCTC) (Jeongeup-si, Korea), Acinetobacter baumannii KCCM 40203, Pseudomonas aeruginosa KCCM 11328 from the Korea Culture Center of Microorganisms (KCCM) (Seoul, Korea). Klebsiella pneumoniae NCCP 16054 were obtained from the National Culture Collection for Pathogens (NCCP) (Osong, Korea). Additionally, two carbapenem-resistant E. coli (CREC E1 and E2), 11 carbapenem-resistant A. baumannii (CRAB C0–C10) and two carbapenem-resistant K. pneumoniae (CRKP K1 and K2) were isolated from the patients, who presented symptoms and signs of infection at Korea University Anam Hospital (Seoul, Korea) (IRB registration no. 2020AN0157, 4 March 2021). CRAB C0–C10 have the OXA-23 gene with carbapenem-resistance.
(§2) The minimum inhibitory concentrations (MIC) were determined using broth dilution method. Briefly, all the mentioned bacterial strains were grown overnight at 37 °C by Muller–Hinton (MH) media. […] After 16 h incubation, the bacterial growth was read at 600 nm using a SpectraMAX microplate reader (Molecular Devices, San Jose, CA, USA).

The test system of series [2] is P. aeruginosa. Kind of series: MIC, broth dilution. It counts as cell-based, Pseudomonas aeruginosa KCCM 11328. Particulars: 16 h, MH media.
Description: as §1, §2

The subject of series [3] is standard Gram-negative bacteria and carbapenem-resistant Gram-negative bacteria. Kind of series: Mean MIC over all bacterial strains (GM) and selective index. It counts as cell-based. Particulars: all 19 bacterial strains of Table 2. How it is done: as §2
For series [4], the system named is sheep red blood cells (sRBC). Put plainly: Hemolytic assay. The class given is cell-based. The note with it: heparinized sheep red blood cells; 200 μM used when no detectable hemolysis at 100 μM. How it is done:
The peptide-induced toxicity was determined by hemolytic against Sheep red blood cells (sRBC). Briefly, Fresh sRBC were washed at least three times with phosphate-buffered saline (PBS) and the debris were removed by centrifugation (1000× g for 5 min, 4 °C). All the peptides including melittin control (0.2–100 μM) and positive control (1% (v/v) triton X-100) were incubated with 4% (v/v) sRBC for 1 h at 37 °C followed by centrifugation at 1000× g for 5 min. The supernatant was measured at 405 nm using a microplate reader.

In the case of `CC[C@H](C)[C@H](NC(=O)CN)C(=O)NCC(=O)N[C@@H](C)C(=O)N[C@H](C(=O)N[C@@H](CC(C)C)C(=O)N[C@@H](CCCCN)C(=O)N[C@H](C(=O)N[C@@H](CC(C)C)C(=O)N[C@H](C(=O)N[C@H](C(=O)NCC(=O)N[C@@H](CC(C)C)C(=O)N1CCC[C@H]1C(=O)N[C@@H](C)C(=O)N[C@@H](CC(C)C)C(=O)N[C@H](C(=O)N[C@@H](CO)C(=O)N[C@@H](Cc1c[nH]c2ccccc12)C(=O)N[C@H](C(=O)N[C@@H](CCCCN)C(=O)N[C@@H](CCCNC(=N)N)C(=O)N[C@@H](CCCCN)C(=O)N[C@@H](CCCNC(=N)N)C(=O)N[C@@H](CCC(N)=O)C(=O)N[C@@H](CCC(N)=O)C(N)=O)[C@@H](C)CC)[C@@H](C)CC)[C@@H](C)O)[C@@H](C)O)C(C)C)C(C)C` [Melittin, reference compound], the “Minimal Inhibitory Concentration (MIC)” value was found to be 8 µM in series [1] and 16 µM in series [2]. The “GM (geometric mean of MIC values of all bacterial strains)” value in series [3] worked out at 13.1 µM. The “HC10 (peptide concentration inducing 10% hemolysis)” value in series [4] was 3.1 µM.
